Experimental data from PMC7778606, “Development of the phenylpyrazolo[3,4-d]pyrimidine-based, insulin-like growth factor receptor/Src/AXL-targeting small molecule kinase inhibitor” (Theranostics, 2021).

Tested on: Src
Assay: Western blot, phosphorylation of Src in H1944 and A549 cells
Assay type: cell-based, human
Details: 50 nM monotherapy, 1 day

With `Cc1nc(Nc2ncc(C(=O)Nc3c(C)cccc3Cl)s2)cc(N2CCN(CCO)CC2)n1` [Dasatinib, dasatinib] the “phosphorylation of Src” value was “suppressed phosphorylation”.
